We go through 1 compound from patent EP0384421A2, “Use of PAF antagonists in the treatment of pathologic changes of the blood gas” (BOEHRINGER INGELHEIM KG, priority 1989, dated 1990).

The data set relates to Methylparathion. As to conditions: Methylparathion 20 mg/kg po 15 Min., no treatment; rats, mean of 6-15.

Turning to `COP(=S)(OC)Oc1ccc([N+](=O)[O-])cc1` [Methylparathion, reference compound], the PCO2 is 97,7, the PO2 is given as 20,6 and the pH was 7,08.
